# Measured values published in patent US7258999B2, “PTH responsive gene” (Wyeth, priority 2002, dated 2007).
# Tested on: PAIGB expression in ROS 17/2.8 cells
# Test: Real time PCR of PAIGB expression in ROS 17/2.8 cells
# Assay type: cell-based, rat
# From the text: Applicants performed multiplex real time PCR (TaqMan) analysis on previously DNAsed samples using gene specific probe and primers and 18S ribosomal RNA probe and primer sets purchased from Applied Biosystem. (Foster City, Calif.) The samples were DNAsed according to the protocol provided by Ambion (DNA-free kit). TaqMan probe and primers for PAIGB was identify using Primer Express computer program. The sequence for rat PAIGB TaqMan probe was 6FAM-5′[…] (SEQ ID NO: 16) forward and reverse primers were 5′[…] 3′ (SEQ ID NO:17) and 5′ […] 3′ (SEQ ID NO:18) respectively. The final concentrations for probes were 500 nM and 40 nM for PAIGB and 18S ribosomal RNA or GAPDH respectively. The concentrations of the primers were 500 nM for PAIGB forward and reversed primers while 18S primers were 10 and 20 nM for forward and reversed primer respectively or 40 nM for GAPDH primers. Standards for rat samples were made from rat tibia or brain RNA in the range of 250 ng to 0.1 ng, while standards for mouse specific TaqMan were made from mouse brain RNA and human standards from human brain RNA (Clonetech, Palo Alto, Calif.) spanning the same range of concentration. Primers and probes for mouse PAIGB were: forward 5′ […] 3′ (SEQ ID NO:19), reverse, 5′ […] 3′ (SEQ ID NO:20) anti-sense and probe 5′ 6FAM-[…] (SEQ ID NO:21). […]
molecule,measurement,setting,value
"BMP2: bone morphogenic protein 2 (protein, UniProt P12643 283-396, looked up) Bone morphogenetic protein 2: QAKHKQRKRLKSSCKRHPLYVDFSDVGWNDWIVAPPGYHAFYCHGECPFPLADHLNSTNHAIVQTLVNSVNSKIPKACCVPTELSAISMLYLDENEKVVLKNYQDMVVEGCGCR",induction of PAIGB expression after 24 hours of treatment,"300 ng/ml, 24 hours",did not induce
same,effect on PAIGB expression after 4 hours of treatment,"4 hours, estrogen 10 nM, tamoxifen 0.1 μM, BMP2 300 ng/ml, calcitonin 5 ng/ml",did not have any effect
